Experimental findings from patent US9340523B2, “Certain dipeptidyl peptidase inhibitors” (FOCHON PHARMA, INC., priority 2009, dated 2016) are described below.

Protein sequences, listed by entry. Tags and fused reporters are not part of them. Residues count along the entry.
UniProt P28843, 37-760 limits assumed: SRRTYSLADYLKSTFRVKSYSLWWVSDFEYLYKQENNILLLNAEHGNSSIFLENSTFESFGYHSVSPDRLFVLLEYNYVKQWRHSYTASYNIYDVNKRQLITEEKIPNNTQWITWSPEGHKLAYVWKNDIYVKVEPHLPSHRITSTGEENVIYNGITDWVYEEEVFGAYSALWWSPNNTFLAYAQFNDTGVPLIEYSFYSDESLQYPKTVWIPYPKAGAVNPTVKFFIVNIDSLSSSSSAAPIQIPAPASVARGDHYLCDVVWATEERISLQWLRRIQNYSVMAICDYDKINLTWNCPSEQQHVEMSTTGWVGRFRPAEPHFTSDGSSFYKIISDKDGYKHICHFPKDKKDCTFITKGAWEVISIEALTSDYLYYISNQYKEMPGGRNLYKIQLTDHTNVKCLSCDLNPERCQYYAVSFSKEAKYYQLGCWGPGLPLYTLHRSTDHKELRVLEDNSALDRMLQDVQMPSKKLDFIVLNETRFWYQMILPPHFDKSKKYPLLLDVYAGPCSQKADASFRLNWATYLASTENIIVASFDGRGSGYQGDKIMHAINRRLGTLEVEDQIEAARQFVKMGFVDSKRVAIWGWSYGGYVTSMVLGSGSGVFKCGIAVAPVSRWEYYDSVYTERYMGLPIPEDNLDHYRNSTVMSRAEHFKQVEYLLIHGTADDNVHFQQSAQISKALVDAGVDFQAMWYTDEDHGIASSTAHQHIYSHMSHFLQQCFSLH

The target of the experiment is plasma DPP-4 activity (Mus musculus, UniProt P28843). The experiment can be described thus: in vivo. The note with it: po.

Where two headings read alike, the source gives them in different places.

With `Cn1c(=O)cc(N2CCC[C@@H](N)C2)n(Cc2ccccc2C#N)c1=O` [Alogliptin], the activity at 3 mg/kg reads like this: (read-out: DPP-4 Relative activity %, 1 hr after dosing) 18.8 ± 1%; (read-out: DPP-4 Relative activity %, 2 hrs after dosing) 19.9 ± 1.3%; (read-out: DPP-4 Relative activity %, 3 hrs after dosing) 22.3 ± 1.5%; (read-out: DPP-4 Relative activity %, 5 hrs after dosing) 25.6 ± 1.6%.
